Reference: patent US20250144067A1, “PERSONALIZED STARVATION THERAPY FOR CANCER” (Faeth Therapeutics, Inc., priority 2021, published 2025)

Key:
[1] = test system: NCI-H292 lung cancer cells; assay: FDA drug screening, complete media vs cholesterol-free media without statin (TABLE 1)
[2] = test system: NCI-H292 lung cancer cells; assay: FDA drug screening, complete media vs cholesterol-free media with simvastatin (TABLE 2)

Acetophenazine (dimaleate)
Cholesterol-free ([1]; NCI-H292 cells, cholesterol-free media without statin, FDA drug library screen): 0.5724 | Complete ([1]; NCI-H292 cells, complete media, FDA drug library screen): 1.148 | Difference ([1]; complete vs cholesterol-free media, […]): 0.58 | Cholesterol-free media + simvastatin (0.04 μM) ([2]; NCI-H292 cells, FDA drug library screen, cholesterol-free media with simvastatin 0.04 μM): 0.9453 | Complete Media ([2]; NCI-H292 cells, FDA drug library screen, complete media): 1.168 | Difference ([2]; complete media minus cholesterol-free media + simvastatin, […]): 0.22
